US9433687B2, “Anti-Notch3 antibodies and antibody-drug conjugates” (Pfizer Inc., priority 2012, dated 2016)

Legend:
[1] = system: OVCAR3 (ovarian cancer); experiment: In vitro cytotoxicity (MTS), OVCAR3; assay type: cell-based, human; conditions: Table 14; LP = lacked potency
Method: The effects of anti-Notch3 ADCs were assessed on 1) cell lines endogenously expressing Notch3 protein: HCC2429 (lung cancer), OVCAR3 (ovarian cancer) and MDA-MB-468 (breast cancer), 2) cell lines engineered to over-express full length human Notch3 protein: MDA-MB-468/hNotch3 and U2OS/hNotch3, and 3) a negative control cell line (SW900) using an MTS cellular viability indicator (Promega, Madison, Wis.). These cell lines were cultured with increasing concentrations of anti-Notch3 ADCs comprising rat-human chimeric anti-Notch3 antibodies, ch28 and ch75, and humanized anti-Notch3 antibodies, hu28 and hu75, conjugated to various linker-payload combinations of the present invention. As a specificity control for the anti-Notch3-ADCs, non-targeted control-ADCs (huNeg8.8-ADCs or ch2H6-ADCs) were also tested on the same cell lines. After four days, viability of each culture was assessed. IC50 values were calculated by logistic non-linear regression, model #203 with XL fit v4.2 (IDBS, Guildford, Surry, UK) and presented as ng Ab/mL. […]
This process generated the anti-Notch3 cysteine mutant ADCs: hu28-(L443C)-vc0101 and hu28-(L443C/κK183C)-vc0101. The activity of the anti-Notch3 cysteine mutant ADCs were assessed on cell lines endogenously expressing Notch3 protein: HCC2429 (lung cancer) and OVCAR3 (ovarian cancer) using an MTS cellular viability indicator as described in previous Examples.

[2] = system: 37622A1 NSCLC patient-derived xenografts; experiment: 37622A1 patient derived NSCLC xenograft model; assay type: in vivo, mouse; conditions: 10 mg/kg iv Q4dx4
Excerpt: The effects of anti-Notch3 ADCs were examined in immunodeficient mice on the in vivo growth of human tumor xenografts that were established from fragments of freshly resected 37622A1 NSCLC tumors obtained in accordance with appropriate consent procedures (Asterand). The 37622A1 NSCLC patient-derived xenografts were subcutaneously passaged in vivo as fragments from animal to animal in nude (Nu/Nu) female mice. When the tumors reached a volume of 150 to 300 mm^3, they were staged to ensure uniformity of the tumor size among various treatment groups. The 37622A1 NSCLC patient-derived xenografts model was dosed intravenously four times every four days (Q4d×4) with PBS vehicle, humanized anti-Notch3 ADCs, control huNeg-8.8 ADCs and cisplatin at the doses provided in Table 19.

[3] = system: MDA-MB-468 breast xenografts; experiment: MDA-MB-468 breast xenograft model; assay type: in vivo, mouse
Method: Similar in vivo experiments were performed with the MDA-MB-468 breast cancer cell line as described above. MDA-MB-468 cells are classified as a triple-negative breast cancer (TNBC) basal-like subtype since they lack expression of the estrogen receptor, progesterone receptor and human epidermal growth factor receptor 2 (HER2) (Lehmann, B D, et al, J Clin Invest. 2011; 121(7):2750-2767). To generate xenografts, female SCID Hairless Outbred (SHO) mice were orthotopically implanted with 10×10^6 MDA-MB-468 cells containing 50% Matrigel (BD Biosciences) in the mammary fat pad. […] FIGS. 13A and 13B show graphs of the data from Table 23 of anti-Notch3 ADCs with vc0101 linker-payloads compared to control huNeg-8.8 ADCs and PBS vehicle. FIGS. 14A and 14B show graphs of the data from Table 24 of the anti-Notch3 ADCs with vc6780 linker-payloads compared to control huNeg-8.8 ADC and PBS vehicle.
The MDA-MB-468 breast cancer model was also dosed intravenously Q4d×4 with PBS vehicle, rat-human chimeric anti-Notch3 ADCs and control huNeg-8.8 ADCs, at a dose of 5 mg/kg as provided in FIGS. 16B and 16C.

B1: hu75-vc6780 (conjugate)
heavy: EVQLVESGGGLVQPGGSLRLSCAASGYAFTDYWMTWVRQAPGKGLEWVAEISPNSGGTNFNEKFKGRFTISVDNAKNSLYLQMNSLRAEDTAVYYCARGEIRYNWFAYWGQGTLVTVSSASTKGPSVFPLAPSSKSTSGGTAALGCLVKDYFPEPVTVSWNSGALTSGVHTFPAVLQSSGLYSLSSVVTVPSSSLGTQTYICNVNHKPSNTKVDKKV[letters of human IgG1 Fc omitted]
light: DIQMTQSPSSLSASVGDRVTITCKASQNVGNNIAWYQQKPGKAPKLLIYYASNRYTGVPSRFSGSGYGTDFTLTISSLQPEDFATYYCQRLYNSPFTFGGGTKVEIKRTVAAPSVFIFPPSDEQLKSGTASVVCLLNNFYPREAKVQWKVDNALQSGNSQESVTEQDSKDSTYSLSSTLTLSKADYEKHKVYACEVTHQGLSSPVTKSFNRGEC
[1]
  IC50 (ng Ab/mL), OVCAR3: 254 ng Ab/mL
[2]; Day 4
  tumor volume: 205 mm^3
[2]; Day 7
  tumor volume: 195 mm^3
[2]; Day 11
  tumor volume: 147 mm^3
[2]; Day 14
  tumor volume: 118 mm^3
[2]; Day 18
  tumor volume: 93 mm^3
[2]; Day 21
  tumor volume: 98 mm^3
[2]; Day 25
  tumor volume: 93 mm^3
[2]; Day 28
  tumor volume: 99 mm^3
[2]; Day 32
  tumor volume: 165 mm^3
[2]; Day 35
  tumor volume: 229 mm^3
[2]; Day 39
  tumor volume: 294 mm^3
[2]; Day 42
  tumor volume: 318 mm^3
[2]; Day 46
  tumor volume: 412 mm^3
[2]; Day 49
  tumor volume: 521 mm^3
[2]; Day 53
  tumor volume: 629 mm^3
[2]; Day 56
  tumor volume: 808 mm^3
[2]; Day 60
  tumor volume: 917 mm^3
[2]; Day 63
  tumor volume: 917 mm^3
[2]; Day 67
  tumor volume: 1116 mm^3
[2]; Day 70
  tumor volume: 1181 mm^3
[2]; Day -1
  tumor volume: 183 mm^3
[3]; Table 24, 1 mg/kg i.v. Q4d×4, DAY 4
  tumor volume (mm^3 ± SEM): 423 mm^3
[3]; Table 24, 1 mg/kg i.v. Q4d×4, DAY 7
  tumor volume (mm^3 ± SEM): 434 mm^3
[3]; Table 24, 1 mg/kg i.v. Q4d×4, DAY 11
  tumor volume (mm^3 ± SEM): 471 mm^3
[3]; Table 24, 1 mg/kg i.v. Q4d×4, DAY 14
  tumor volume (mm^3 ± SEM): 470 mm^3
[3]; Table 24, 1 mg/kg i.v. Q4d×4, DAY 19
  tumor volume (mm^3 ± SEM): 536 mm^3
[3]; Table 24, 1 mg/kg i.v. Q4d×4, DAY 22
  tumor volume (mm^3 ± SEM): 552 mm^3
[3]; Table 24, 1 mg/kg i.v. Q4d×4, DAY 25
  tumor volume (mm^3 ± SEM): 597 mm^3
[3]; Table 24, 1 mg/kg i.v. Q4d×4, DAY 28
  tumor volume (mm^3 ± SEM): 660 mm^3
[3]; Table 24, 1 mg/kg i.v. Q4d×4, DAY 32
  tumor volume (mm^3 ± SEM): 634 mm^3
[3]; Table 24, 1 mg/kg i.v. Q4d×4, DAY 35
  tumor volume (mm^3 ± SEM): 742 mm^3
[3]; Table 24, 1 mg/kg i.v. Q4d×4, DAY 40
  tumor volume (mm^3 ± SEM): 794 mm^3
[3]; Table 24, 1 mg/kg i.v. Q4d×4, DAY 43
  tumor volume (mm^3 ± SEM): 832 mm^3
[3]; Table 24, 1 mg/kg i.v. Q4d×4, DAY 46
  tumor volume (mm^3 ± SEM): 868 mm^3
[3]; Table 24, 3 mg/kg i.v. Q4d×4, DAY 4
  tumor volume (mm^3 ± SEM): 406 mm^3
[3]; Table 24, 3 mg/kg i.v. Q4d×4, DAY 7
  tumor volume (mm^3 ± SEM): 378 mm^3
[3]; Table 24, 3 mg/kg i.v. Q4d×4, DAY 11
  tumor volume (mm^3 ± SEM): 403 mm^3
[3]; Table 24, 3 mg/kg i.v. Q4d×4, DAY 14
  tumor volume (mm^3 ± SEM): 370 mm^3
[3]; Table 24, 3 mg/kg i.v. Q4d×4, DAY 19
  tumor volume (mm^3 ± SEM): 339 mm^3
[3]; Table 24, 3 mg/kg i.v. Q4d×4, DAY 22
  tumor volume (mm^3 ± SEM): 360 mm^3
[3]; Table 24, 3 mg/kg i.v. Q4d×4, DAY 25
  tumor volume (mm^3 ± SEM): 381 mm^3
[3]; Table 24, 3 mg/kg i.v. Q4d×4, DAY 28
  tumor volume (mm^3 ± SEM): 443 mm^3
[3]; Table 24, 3 mg/kg i.v. Q4d×4, DAY 32
  tumor volume (mm^3 ± SEM): 437 mm^3
[3]; Table 24, 3 mg/kg i.v. Q4d×4, DAY 35
  tumor volume (mm^3 ± SEM): 495 mm^3
[3]; Table 24, 3 mg/kg i.v. Q4d×4, DAY 40
  tumor volume (mm^3 ± SEM): 535 mm^3
[3]; Table 24, 3 mg/kg i.v. Q4d×4, DAY 43
  tumor volume (mm^3 ± SEM): 619 mm^3
[3]; Table 24, 3 mg/kg i.v. Q4d×4, DAY 46
  tumor volume (mm^3 ± SEM): 636 mm^3
[3]; Table 24, 10 mg/kg i.v. Q4d×4, DAY 4
  tumor volume (mm^3 ± SEM): 418 mm^3
[3]; Table 24, 10 mg/kg i.v. Q4d×4, DAY 7
  tumor volume (mm^3 ± SEM): 370 mm^3
[3]; Table 24, 10 mg/kg i.v. Q4d×4, DAY 11
  tumor volume (mm^3 ± SEM): 302 mm^3
[3]; Table 24, 10 mg/kg i.v. Q4d×4, DAY 14
  tumor volume (mm^3 ± SEM): 228 mm^3
[3]; Table 24, 10 mg/kg i.v. Q4d×4, DAY 19
  tumor volume (mm^3 ± SEM): 112 mm^3
[3]; Table 24, 10 mg/kg i.v. Q4d×4, DAY 22
  tumor volume (mm^3 ± SEM): 52 mm^3
[3]; Table 24, 10 mg/kg i.v. Q4d×4, DAY 25
  tumor volume (mm^3 ± SEM): 63 mm^3
[3]; Table 24, 10 mg/kg i.v. Q4d×4, DAY 28
  tumor volume (mm^3 ± SEM): 64 mm^3
[3]; Table 24, 10 mg/kg i.v. Q4d×4, DAY 32
  tumor volume (mm^3 ± SEM): 71 mm^3
[3]; Table 24, 10 mg/kg i.v. Q4d×4, DAY 35
  tumor volume (mm^3 ± SEM): 85 mm^3
[3]; Table 24, 10 mg/kg i.v. Q4d×4, DAY 40
  tumor volume (mm^3 ± SEM): 125 mm^3
[3]; Table 24, 10 mg/kg i.v. Q4d×4, DAY 43
  tumor volume (mm^3 ± SEM): 134 mm^3
[3]; Table 24, 10 mg/kg i.v. Q4d×4, DAY 46
  tumor volume (mm^3 ± SEM): 143 mm^3
[3]; Table 24, 10 mg/kg i.v. Q4d×4, DAY 49
  tumor volume (mm^3 ± SEM): 159 mm^3
